# Values of other authors in US20230184643A1, “METHOD FOR MEASURING OR IDENTIFYING A COMPONENT OF INTEREST IN SPECIMENS” (SHIMADZU CORPORATION, priority 2020, published 2023).
# Where two headings read alike, the source gives them in different places. This is a selection: effects in other tests are not listed, and their absence says nothing.
smiles,measurement,setting,value
CCC(=O)N(c1ccccc1)C1CCN(CCc2ccccc2)CC1,LogP,"Table 2.1, retrieved from Drug bank, accessed April 2020",4.05
same,LogP,"Table S1, source not given",4.05
